Screens from PubChem BioAssay.
B2AR arrestin: beta2AR (human) beta-arrestin recruitment activity. beta-arrestin recruitment to beta2AR, cell-based reporter. AID 492947. Potency, µM (highest dose often 46.1 µM), for inactives: at the top dose activation, most hits filed as activators. 330,000 tested, 0.02% active. P07550;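 further: potency means the concentration at half of the fitted maximal effect; 0% = DMSO controls and full agonism = EC100 isoproterenol or metaproterenol; nearly all actives have a fitted effect of over 65% in size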
Nrf2 block: inhibitors of Nrf2 signaling; A549 ARE-Fluc reporter, luciferase luminescence, 18-24 h; Potency, µM (top dose mostly 46 µM), for inactives: at the top dose activity change, negative = inhibition, usual class: inhibitors; 360,000 tested, 2.1% active; AID 504444; further: potency means the concentration at half of the fitted maximal effect; on the % scale 0 is the no-effect control and ±100 the full control effect; nearly all actives have a fitted effect of over 60% in size
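Nrf2 activity is the BugLite luminescence, read 15 min after reagent at room temperature, following CellTiter-Fluor cytotoxicity readout (30 min, 37C). Compound titrations were applied for 18-24 h to 5000 A549 ARE_Fluc cells/well in 5% FBS OPTI-MEM.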
Nrf2 ARE act: Nrf2 pathway activation. Potency, µM (doses to about 46.1 µM), inactives show at the highest dose activation, most hits filed as activators. 410,000 tested, 0.31% active. AREc32 ARE-luciferase reporter (MCF7-derived line), luminescence, 24 h. AID 624171; further: potency means the concentration at half of the fitted maximal effect; % of control where 0% means no effect; nearly all actives have a fitted effect of over 65% in size
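AREc32 cells carrying an ARE-driven firefly luciferase reporter were seeded at 1000 cells/well in OPTI-MEM with 5% FBS, then exposed to compound for 24 hr at 37 deg C. Luminescence was read with Steady-Glo after 30 min at RT.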
A549 viability: kills or reduces viability of A549 cells in Nrf2 counter-screen; AID 504648; 390,000 tested, 0.16% active; A549 ARE-Fluc cells, CellTiter-Fluor viability, 18-24 h; Potency, µM (series often up to 46 µM), for the others: top-dose activity change, negative = cytotoxicity, actives largely listed as inhibitors; further: potency means the concentration at half of the fitted maximal effect; on the % scale 0 is the no-effect control and ±100 the full control effect
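A549 ARE-Fluc cells in 5% FBS OPTI-MEM, 5000 cells/well, rested 2 h then exposed to compounds in concentration-response for 18-24 h at 37 °C. Viability by CellTiter-Fluor fluorescence (Ex 405/Em 525) after 30 min; luciferase luminescence (BugLite, 15 min, RT) read afterwards.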
miR-21 reporter: miR-21 reporter, rising signal | AID 2288 | HeLa miR-21 FLuc reporter, luciferase, 48 h | 340,000 tested, under 10 active | Potency, µM (doses to about 38.3 µM), for inactives: at the top dose reporter change, positive = more light; active = well fitted rising curve with a large enough effect; inconclusive = small, poorly fitted or top-dose-only effect; inactive = no such curve, though single readings can be large or run the other way;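 note: % of control where 0% means no effect; miR-21 action dims this reporter so a rising signal means less miR-21 action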
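Luminescence from a firefly luciferase reporter carrying a miR-21 binding site downstream, stably expressed under a CMV promoter in HeLa cells that make miR-21 endogenously, reports miRNA modulation after 48 h compound exposure up to approximately 40uM final.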
The depositor's hits bear a star; ? = inconclusive; . = no result given; [ ] = another dose, or the depositor's remark. Rows were chosen to be rich in hits. Some 2.2% of all compounds tested hit in one or more screens of this group. Unless noted, the call rests on the fitted dose curve; in most records, active means well fitted curve in the direction sought with a large enough effect; inconclusive means small, poorly fitted or top-dose-only effect, or another doubt; inactive means no such curve, though single readings can be large; an effect the other way counts as inactive or inconclusive.

Short forms: A = B2AR arrestin; B = Nrf2 block; C = Nrf2 ARE act; D = A549 viability; E = miR-21 reporter
Molecule: COc1ccc(C2c3c(n(Cc4ccccc4)cnc3=N)Oc3ccc4ccccc4c32)cc1OC (stereo unspecified)
  A: .; B: 3%; C: .; D: -7%; E: .

Molecule: Cc1ccc(/C=N/N(C)S(=O)(=O)c2ccc(C)cc2)cc1
  A: -1%; B: 26µM*; C: 0%; D: -1%; E: 9%

Molecule: Cc1ccc(S(=O)(=O)N(C)S(=O)(=O)c2ccc(C)cc2)cc1
  A: 0%; B: 23µM*; C: 4%; D: 4%; E: .

Molecule: Cc1cccc(C(=O)NNc2ncnc3c2cnn3-c2ccc(C)c(Cl)c2)c1
  A: .; B: .; C: 0%; D: 10%; E: -59%

Molecule: Cc1nc2ncnn2c(C)c1CCC(=O)N1CCN(c2ccccn2)CC1
  A: 0%; B: 8%; C: -1%; D: 25%; E: -6%

Molecule: Cc1ccc(N2CCN(C(=O)CCc3c(C)nc4ncnn4c3C)CC2)c(C)c1
  A: .; B: 18µM*; C: 0%; D: 1%; E: 3%

Molecule: COc1cccc(Cn2c(=O)n(-c3cccc(Cl)c3C)c(=O)c3c4c(sc32)CN(C(C)=O)CC4)c1
  A: .; B: .; C: 0%; D: -15%; E: -3%

Molecule: O=C1c2ccccc2CCCC12N=NCC2c1cccc2ccccc12 (stereo unspecified)
  A: -1%; B: 16µM*; C: 0%; D: -4%; E: -1%

Molecule: Cc1ccc(C2CN=NC23CCc2ccccc2C3=O)cc1 (stereo unspecified)
  A: 1%; B: ?; C: 5%; D: 1%; E: -43%

Molecule: CC(=O)Nc1ccc(NC(=O)Cn2nc([N+](=O)[O-])c(Br)c2C)cc1
  A: 0%; B: -7%; C: 6%; D: -10%; E: -1%

Molecule: Cc1c(Br)c([N+](=O)[O-])nn1CC(=O)Nc1ccc(Cc2ccncc2)cc1
  A: -2%; B: 18µM*; C: -1%; D: ?; E: -1%

Molecule: CCOC(=O)c1c(-c2ccccc2)csc1NC(=O)CSc1nnc(C)s1
  A: 0%; B: 13µM*; C: 1%; D: -10%; E: 10%

Molecule: CCOC(=O)c1c(-c2ccc(OC)cc2)csc1NC(=O)CSc1ncnc2sccc12
  A: 0%; B: 15µM*; C: 0%; D: 20%; E: 4%

Molecule: CC(C)c1nnc(NC(=O)CCS(=O)(=O)c2nc(-c3cccs3)cc(C(F)(F)F)n2)s1
  A: 0%; B: 23µM*; C: -2%; D: ?; E: ?

Molecule: O=C(CCS(=O)(=O)c1nc(-c2cccs2)cc(C(F)(F)F)n1)Nc1ccc(OC(F)(F)F)cc1
  A: .; B: 6%[9.27 µM]; C: ?; D: -1%; E: ?

Molecule: O=C(NCc1cccnc1)C1CCC(c2ccc(Cl)cc2)CC1 (stereo unspecified)
  A: 0%; B: 23µM*; C: -1%; D: 0%; E: 24%

Molecule: O=C(NCc1cccnc1)C1CCN(C(=O)c2ccc(Cl)cc2Cl)CC1
  A: -1%; B: 8%; C: 0%; D: 1%; E: -9%

Molecule: Cn1nnnc1Sc1ncnc2scc(-c3cccc(N)c3)c12
  A: .; B: 5%; C: .; D: -1%; E: .

Molecule: CCC(Sc1ccc(Cl)cc1)C(=O)Nc1nnc(-c2cccc([N+](=O)[O-])c2)s1 (stereo unspecified)
  A: 0%; B: ?; C: 13µM*; D: 14%; E: -7%

Molecule: CCC(Sc1nncn1C)C(=O)Nc1nnc(-c2ccccc2Cl)s1 (stereo unspecified)
  A: 0%; B: 5%; C: 21%; D: 2%; E: -43%

Molecule: CNC(=O)/C(C#N)=C/c1c(N(Cc2ccccc2)Cc2ccccc2)nc2ccccn2c1=O
  A: -1%; B: ?; C: 5%; D: 23µM*; E: -1%

Molecule: Cc1ccc(-c2nnc(N3CCCCC3)c3ccccc23)cc1
  A: -1%; B: -12%; C: 6%; D: -3%; E: -9%

Molecule: Cc1ccc(-c2nnc(N3CCN(c4ccccn4)CC3)c3ccccc23)cc1
  A: 0%; B: 23µM*; C: 0%; D: ?; E: 17%

Molecule: Cc1ccc(NC(=O)c2cnc(N3CCN(c4ccccn4)CC3)c3ccccc23)c(Br)c1
  A: 0%; B: 15µM*; C: -1%; D: -12%; E: ?

Molecule: c1ccc(-c2nnc(N3CCN(c4ccccn4)CC3)c3ccccc23)cc1
  A: 0%; B: 18µM*; C: -2%; D: ?; E: -8%

Molecule: O=C(COc1ccc([N+](=O)[O-])cc1)Nc1cccc2cccnc12
  A: .; B: ?; C: 0%; D: -2%; E: -21%

Molecule: CC(C)Oc1ccc(/C=N/NC(N)=S)cc1
  A: 16µM*; B: 10%; C: 6%; D: -1%; E: -16%

Molecule: COc1ccc(C(=O)COC(=O)C2CC3CCCC(C2)C3=O)cc1Br (stereo unspecified)
  A: 0%; B: 20%; C: -1%; D: 1%; E: .

Molecule: COc1ccc(C(=O)COC(=O)CN2CC(=O)Oc3ccccc32)cc1Br
  A: 0%; B: 0%; C: 14µM*; D: -19%; E: -17%

Molecule: Cc1ccc(S(=O)(=O)N2CCN(c3nc(-c4cccs4)nc4cccnc34)CC2)cc1
  A: .; B: 6%; C: .; D: -1%; E: .

Reprinted at random: two compounds from above.
Short forms: A = B2AR arrestin; B = Nrf2 block; C = Nrf2 ARE act; D = A549 viability; E = miR-21 reporter
Molecule: Cn1nnnc1Sc1ncnc2scc(-c3cccc(N)c3)c12
  A: .; B: 5%; C: .; D: -1%; E: .

Molecule: Cc1ccc(-c2nnc(N3CCN(c4ccccn4)CC3)c3ccccc23)cc1
  A: 0%; B: 23µM*; C: 0%; D: ?; E: 17%

Further structures follow:
Short forms: A = B2AR arrestin; B = Nrf2 block; C = Nrf2 ARE act; D = A549 viability; E = miR-21 reporter
Molecule: Cc1ccccc1C(=O)Nc1scc(-c2ccc(Br)cc2)c1C(=O)O
  A: .; B: 8.2µM*; C: -2%; D: -25%; E: .

Molecule: O=C(Nc1scc(-c2ccc(Br)cc2)c1C(=O)O)c1ccccc1F
  A: .; B: 10µM*; C: -1%; D: -11%; E: .

Molecule: O=C(Nc1scc(-c2ccccc2)c1C(=O)O)c1ccccc1F
  A: -3%; B: -5%; C: 0%[9.22 µM]; D: -2%; E: -3%

Molecule: COc1ccc2sc(N(Cc3cccnc3)C(=O)C3COc4ccccc4O3)nc2c1 (stereo unspecified)
  A: .; B: .; C: 1%; D: 16%; E: -14%

Molecule: CCC(=O)Nc1ccc(CC)cc1-c1nc2ccccc2n(CC(=O)Nc2ccccc2C)c1=O
  A: .; B: 6%; C: -1%; D: 10%; E: 0%

Molecule: O=C(Nc1ncccc1O)c1ccc(S(=O)(=O)Nc2ccccc2)cc1
  A: -1%; B: -21%; C: 11µM*; D: 0%; E: .

Molecule: O=C(Nc1ccccc1O)c1ccc(NS(=O)(=O)c2cccc3cccnc23)cc1
  A: 1%; B: -10%; C: 11µM*; D: 10%; E: -24%

Molecule: Cc1ccc(-c2cc3ncc(C(=O)c4cc([N+](=O)[O-])ccc4O)cn3n2)cc1
  A: .; B: 4%; C: 3%; D: -1%; E: 3%

Molecule: COc1ccc(-c2nc(N3CCN(S(=O)(=O)c4ccc(F)cc4)CC3)c3ccccc3n2)cc1
  A: .; B: -5%; C: .; D: 1%; E: .

Molecule: Cc1ccc(NC(=O)Cn2nnc(-c3ccccc3NC(=O)c3cccs3)n2)cc1
  A: 0%; B: ?; C: -1%; D: ?; E: 24%

Molecule: COc1ccc(NC(=O)Cn2nnc(-c3ccccc3NC(=O)c3cccs3)n2)cc1
  A: 0%; B: 18µM*; C: -1%; D: -14%; E: 0%

Molecule: COc1ccc(NC(=O)/C(Cl)=C(/Cl)S(=O)Cc2ccccc2Cl)cn1 (stereo unspecified)
  A: 0%; B: -135%; C: -3%; D: 15µM*; E: ?

Molecule: COc1ccccc1-c1noc(-c2ccc(NC(C)C)c([N+](=O)[O-])c2)n1
  A: .; B: ?; C: 19%; D: -1%; E: -7%

Molecule: COc1ccc(-c2sc3ccc(N4CCOCC4)cc3c2C#CCO)cc1
  A: 0%; B: 16µM*; C: -3%; D: -9%; E: .

Molecule: Cc1ccc(NC(=O)c2cccc(S(=O)(=O)N3CCN(c4ccccc4)CC3)c2)nc1
  A: 0%; B: 15µM*; C: 3%; D: -11%; E: .

Molecule: Cc1cc(NC(=O)c2ccc(Cl)c(S(=O)(=O)N3CCCCC3)c2)no1
  A: 0%; B: 23µM*; C: 0%; D: -16%; E: 0%

Molecule: Cc1ccc(NC(=O)c2ccc(Cl)c(S(=O)(=O)N3CCCCC3)c2)nc1
  A: 0%; B: 21µM*; C: -1%; D: -7%; E: .

Molecule: Cc1ccnc(NC(=O)c2ccc(Cl)c(S(=O)(=O)N3CCCCC3)c2)c1
  A: -1%; B: ?; C: 0%; D: -15%; E: .

Sorted by the number under miR-21 reporter (smallest number first): 3 of the compounds above
molecule | miR-21 reporter
O=C(Nc1ccccc1O)c1ccc(NS(=O)(=O)c2cccc3cccnc23)cc1 | -24%
COc1ccc2sc(N(Cc3cccnc3)C(=O)C3COc4ccccc4O3)nc2c1 (stereo unspecified) | -14%
CCC(=O)Nc1ccc(CC)cc1-c1nc2ccccc2n(CC(=O)Nc2ccccc2C)c1=O | 0%
